This experiment has as its target Saccharomyces cerevisiae D-arabinose dehydrogenase Ara1 (S. cerevisiae) (UniProt P38115). The experiment can be described thus: SEC; gel-filtration chromatography, Ara1 in solution.

Usually stoichiometry N stands for a count of units in the complex or per binding partner. “Saccharomyces cerevisiae D-arabinose dehydrogenase Ara1 (from UniProt P38115 1-344) (enzyme)” showed a stoichiometry N of 2.

Source of the values: publication PMC3818031, “Structures of Saccharomyces cerevisiae D-arabinose dehydrogenase Ara1 and its complex with NADPH: implications for cofactor-assisted substrate recognition” (Acta Crystallographica Section F: Structural Biology and …, 2013).
